A word on the Ki: it is a measure of affinity in units of concentration, obtained from inhibition or displacement.

Chains of the proteins cited; added tags and fusions are not shown. Lines headed by an entry give the natural chain unless they say otherwise; changes in a name come on top. Residues count along the entry.
UniProt P54289, 25-1103 limits assumed: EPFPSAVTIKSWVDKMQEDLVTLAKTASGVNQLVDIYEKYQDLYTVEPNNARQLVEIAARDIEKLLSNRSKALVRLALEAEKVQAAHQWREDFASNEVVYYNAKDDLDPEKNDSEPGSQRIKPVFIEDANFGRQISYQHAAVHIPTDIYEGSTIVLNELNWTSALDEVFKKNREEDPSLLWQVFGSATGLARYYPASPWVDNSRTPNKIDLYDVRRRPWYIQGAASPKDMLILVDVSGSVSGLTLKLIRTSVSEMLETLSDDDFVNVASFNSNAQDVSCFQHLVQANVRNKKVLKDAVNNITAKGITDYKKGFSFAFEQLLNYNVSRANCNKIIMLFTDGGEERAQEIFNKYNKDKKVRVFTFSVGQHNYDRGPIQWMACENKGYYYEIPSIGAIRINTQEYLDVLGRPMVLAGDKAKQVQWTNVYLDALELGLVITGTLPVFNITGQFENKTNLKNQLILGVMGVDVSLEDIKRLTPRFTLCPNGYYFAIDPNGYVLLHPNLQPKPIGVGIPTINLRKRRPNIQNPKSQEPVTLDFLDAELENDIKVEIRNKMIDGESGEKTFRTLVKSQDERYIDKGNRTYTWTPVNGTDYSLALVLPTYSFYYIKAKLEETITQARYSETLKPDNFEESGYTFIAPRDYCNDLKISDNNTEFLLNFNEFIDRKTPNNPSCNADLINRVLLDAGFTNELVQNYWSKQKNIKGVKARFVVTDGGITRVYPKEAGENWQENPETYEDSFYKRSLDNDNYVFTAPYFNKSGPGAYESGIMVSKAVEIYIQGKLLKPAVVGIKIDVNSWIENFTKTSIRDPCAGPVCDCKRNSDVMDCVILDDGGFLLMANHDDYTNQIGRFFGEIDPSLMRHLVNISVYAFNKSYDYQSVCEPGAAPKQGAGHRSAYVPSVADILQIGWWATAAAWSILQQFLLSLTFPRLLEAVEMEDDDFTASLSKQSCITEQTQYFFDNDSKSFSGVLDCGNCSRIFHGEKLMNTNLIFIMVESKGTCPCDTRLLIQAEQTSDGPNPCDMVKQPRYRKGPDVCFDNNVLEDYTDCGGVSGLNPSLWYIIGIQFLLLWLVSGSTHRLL

The record followed here is patent publication US10577360B2, “Arylamide derivatives having multimodal activity against pain” (ESTEVE PHARMACEUTICALS, S.A., priority 2016, dated 2020).

Some compounds may have been tested in ways that are not shown here.

This test addresses Human α2δ-1 subunit of Cav2.2 calcium channel (Homo sapiens (Human), UniProt P54289). The test can be described thus: Human α2δ-1 subunit of Cav2.2 calcium channel assay ([3H]-Gabapentin binding). The following applies: read-out: α2δ − 1 (Ki).

Consider `COCCOc1cccc(-n2ccc(N(C(=O)c3cccs3)C3CCN(C)CC3)n2)c1`, for which the inhibition constant Ki lay within 0.5 to 5 µM.
For `Cc1ccccc1-n1ccc(N(C(=O)c2cccs2)C2CCN(Cc3ccccc3)CC2)n1` the value was 0.5 to 5 µM; for `COc1cccc(-n2ccc(N(C(=O)c3cccs3)C3CCN(Cc4ccccn4)CC3)n2)c1`, 0.5 to 5 µM.
For `Cn1cccc1C(=O)N(c1ccn(-c2ccc(F)cc2)n1)C1CCN(Cc2ccccc2)CC1` the value was greater than 5 µM.
The result for `O=C(c1cccs1)N(c1ccn(-c2ccncc2Cl)n1)C1CCN(Cc2ccccc2)CC1` reads 0.5 to 5 µM; that for `COc1cccc(-n2ccc(N(C(=O)c3cccs3)C3CCN(Cc4cccnc4)CC3)n2)c1`, greater than 5 µM.
For `Cc1nnc(-c2cccc(-n3cc(N(C(=O)c4ccc(O)cc4)C4CCN(C)CC4)cn3)c2)o1`, the inhibition constant Ki was greater than 5 µM.
For `CN1CCC(N(C(=O)c2cccs2)c2ccn(-c3ccncc3F)n2)CC1` the value was 0.5 to 5 µM; for `O=C(c1ccc(Cl)s1)N(c1ccn(-c2ccccc2)n1)C1CCN(Cc2ccccc2)CC1`, greater than 5 µM; for `O=C(c1cccs1)N(c1ccn(-c2c(Cl)cncc2Cl)n1)C1CCN(Cc2ccccc2)CC1`, greater than 5 µM.
For `Cc1nnc(-c2cccc(-n3ccc(N(C(=O)c4cccs4)C4CCN(CC(C)C)CC4)n3)c2)o1` the value was 0.5 to 5 µM.
For `O=C(c1cccs1)N(c1ccn(-c2ccccn2)n1)C1CCN(Cc2ccccc2)CC1` the value was 0.5 to 5 µM; for `COc1cccc(C(=O)N(c2ccn(-c3ccccc3)n2)C2CCN(C)CC2)c1`, greater than 5 µM.
Consider `N#Cc1cccc(-n2ccc(N(C(=O)c3cccs3)C3CCN(Cc4ccccc4)CC3)n2)c1`, for which the inhibition constant Ki was in the range of 0.5 to 5 µM.
Consider `CN1CCC(N(C(=O)c2cccs2)c2ccn(-c3cccnc3)n2)CC1`, for which the Ki lay in the range of 0.5 to 5 µM.
For `O=C(c1ccc(F)s1)N(c1ccn(-c2ccccc2)n1)C1CCN(Cc2ccccc2)CC1` the value was 0.5 to 5 µM.
Take `COc1ccc(-n2ccc(N(C(=O)c3cccs3)C3CCN(C)CC3)n2)c(Cl)c1`: the Ki is greater than 5 µM.
For `Cc1cc(N(C(=O)c2cccs2)C2CCN(C)CC2)nn1-c1ccccc1` the value was greater than 5 µM.
For `CN1CCC(N(C(=O)c2ncccc2F)c2ccn(-c3ccccc3)n2)CC1` the value was greater than 5 µM; for `COc1cc(Cl)cc(-n2ccc(N(C(=O)c3cccs3)C3CCN(C)CC3)n2)c1`, 0.5 to 5 µM.
The result for `CC(C)N1CCC(N(C(=O)c2cccs2)c2ccn(-c3ccccc3)n2)CC1` reads 0.5 to 5 µM.
Take `COc1cc(F)cc(-n2cc(N(C(=O)c3cccs3)C3CCN(C)CC3)cn2)c1`: the inhibition constant (Ki) is greater than 5 µM.
For `Cc1nnc(-c2cccc(-n3ccc(N(C(=O)c4cccc(O)c4)C4CCN(C)CC4)n3)c2)o1` the value was 0.5 to 5 µM.
